Literature values in PMC12609579, “Acute Myeloid Leukemia: A Key Role of DGKα and DGKζ in Cell Viability” (Cells, 2025).

Target: dopamine D2 receptor
Conditions: read-out: Ki D2; cited from earlier work

CCN(CC)CCNC(=O)c1cc(Cl)c(N)cc1OC [metoclopramide]
Ki: 28.8 nM
